Assay results as given in PubChem BioAssay AID1337 (NMMLSC, 2008).
pEC50: −log10 of the molar value.

Target: Ras-related protein Rab-2A (Canis lupus familiaris) (UniProt P61105)
Assay: Rab2 wildtype GTP-binding inhibitors, dose response, biochemical, GST-Rab2 beads, Bodipy-FL-GTP, flow cytometry, multiplex (AID 1337)
Settings: Bead-bound GST-Rab2 wt

CC1(C)Cc2c(sc(NC(=S)NC(=O)c3ccccc3)c2C(=O)O)CO1
pEC50: 6.77
